# PubChem BioAssay AID429 (Emory University Molecular Libraries Screening Center, 2006)
# Values joined by “and” are separate entries in the source; they are usually repeats but may differ in a detail not shown here. Equal entries are not always repeated. Only a part is listed here, and it is no random draw. Active and inactive are the calls of the source.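 How the source made its calls: active means inhibition above 50%; inactive means the rest.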
# Target: Heat shock protein HSP 90-alpha (Homo sapiens) (UniProt P07900)
# Test: Hsp90 geldanamycin-site probe displacement – cell lysate, fluorescence polarization, NCI-N417 lysate, primary screen (AID 429);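 further: 0% = tracer plus lysate wells and 100% = tracer alone without lysate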
# Settings: NCI-N417 lysate Hsp90, Cy3B-geldanamycin FP displacement; at 30 µM; stronger effect = higher value
row,Compound,inhibition
1,O=C(OC1CN2CCC1CC2)c1cccc(Cl)c1 (stereo not given),inactive: -0.97%
2,O=P(Nc1nccs1)(c1ccccc1)c1ccccc1,inactive: -2.12%
3,c1nnnn1CCn1cnnn1,inactive: -0.72%
4,O=P1(Nc2nc3ccc(Cl)cc3s2)COc2ccccc2O1 (stereo not given),inactive: -0.3%
5,CN(C(=O)Cc1ccc(Cl)c(Cl)c1)[C@@H]1CCCC[C@@H]1N1CCCC1,inactive: -1.21%
6,CN(C(=O)Cc1ccc(Cl)c(Cl)c1)[C@H]1CCCC[C@@H]1N1CCCC1,inactive: 0.1% and inactive: 0.96%
7,Cc1c2non([O-])c-2c(C)[n+](=O)[n+]1[O-],inactive: 1.42%
8,CCc1nc2c(n1)c1c(non1O)c1c2no[n+]1[O-],inactive: -5.64%
9,COP1(=S)c2c(C)nn(CCC#N)c2N=C(c2ccc(F)cc2)N1C (stereo not given),inactive: -0.66%
10,O=C(COc1ccccc1)OC1CN2CCC1CC2 (stereo not given),inactive: -0.75%
11,O=C(OC1CN2CCC1CC2)C12CC3CC(CC(C3)C1)C2 (stereo not given),inactive: 1.35%
12,CCOP1(=S)c2c(C)nn(CCC#N)c2N=C(c2ccc(F)cc2)N1C (stereo not given),inactive: 1.57%
13,CN(C(=O)Cc1ccccc1)[C@@H]1CC[C@]2(CCCO2)C[C@H]1N1CCCC1,inactive: 0.96%
14,O=P(Nc1nccs1)(c1ccccc1)c1nc2ccccc2s1 (stereo not given),inactive: -4%
15,CCOP1(=S)c2c(C)nn(CCC#N)c2N=C(c2ccccc2F)N1C (stereo not given),inactive: -2.33%
16,CN(C(=O)Cc1ccc(Cl)c(Cl)c1)[C@@H]1CC[C@]2(CCCO2)C[C@H]1N1CCCC1,inactive: 1.52%
17,Cc1cccc(OCC(=O)OC2CN3CCC2CC3)c1 (stereo not given),inactive: -5.48%
18,CN(C(=O)Cc1ccc(Cl)c(Cl)c1)[C@@H]1CCCC[C@H]1N1CCCC1,inactive: -0.71%
19,O=P1(Nc2ccccn2)COc2ccccc2OC1,inactive: 1.89%
20,CN(CCCl)Cc1cc(Cl)c(NC2=NCCN2)c(Cl)c1,inactive: -3.59%
21,Clc1n[nH]nc1-c1nn[nH][15n]1,inactive: -1.77%
22,O=P1(Nc2ncccn2)COc2ccccc2OC1,inactive: -5.79%
23,O=P1(Nc2ccc(Br)cn2)COc2ccccc2OC1,inactive: 0.25%
24,Cc1ccc(OCC(=O)OC2CN3CCC2CC3)cc1 (stereo not given),inactive: 2.14%
25,Cc1nn(-c2ccccc2)c2c1P(=O)(N1CCOCC1)N(C)C(c1ccccc1)=N2 (stereo not given),inactive: 2.69%
